target: Human neutrophil elastase (Homo sapiens (Human), UniProt P08246); assay: Human Neutrophil Elastase Assay; type: biochemical; details: substrate MeOSuc-Ala-Ala-Pro-Val-AMC, pH 7.5

Chains of the proteins cited; added tags and fusions are not shown. Residues count along the entry.
UniProt P08246, 30-267 limits assumed: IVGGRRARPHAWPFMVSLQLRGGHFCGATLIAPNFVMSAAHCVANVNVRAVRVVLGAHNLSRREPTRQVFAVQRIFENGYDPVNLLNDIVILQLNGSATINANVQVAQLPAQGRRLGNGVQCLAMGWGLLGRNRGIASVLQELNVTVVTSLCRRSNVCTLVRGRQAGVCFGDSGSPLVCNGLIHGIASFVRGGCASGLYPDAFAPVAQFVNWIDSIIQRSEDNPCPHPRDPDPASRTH

IC50, < 1 nM:
CS(=O)(=O)c1cc(C#N)ccc1[C@@H]1C2=C(CCCC2=O)N(c2cccc(C(F)(F)F)c2)C(=O)N1C(=O)N[C@H]1CCCC[C@@H]1O, CS(=O)(=O)c1cc(C#N)ccc1[C@@H]1C2=C(CCCC2=O)N(c2cccc(C(F)(F)F)c2)C(=O)N1C(=O)N[C@H]1CCC[C@H]1O, CS(=O)(=O)c1cc(C#N)ccc1[C@@H]1C2=C(CCCC2=O)N(c2cccc(C(F)(F)F)c2)C(=O)N1C(=O)N[C@H]1CC[C@H](O)C1, CS(=O)(=O)c1cc(C#N)ccc1[C@@H]1C2=C(CCCC2=O)N(c2cccc(C(F)(F)F)c2)C(=O)N1C(=O)N[C@H]1CCC[C@@H]1O

Source: USRE47493E1, “Substituted bicyclic dihydropyrimidinones and their use as inhibitors of neutrophil elastase activity” (Boehringer Ingelheim International GmbH, priority 2014, dated 2019)
